## Measured vapor pressure values of organic chemicals

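The numbers are reported measurements, compiled and curated for the OPERA QSAR suite. A listed value is a point estimate from one report or more. How each value was measured is not recorded, so precision varies. A value may pool stereoisomers or salt forms, and the file does not say which form was measured. Some upstream entries may be estimates or bounds without being marked so.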

Vapor pressure is log10 of mmHg; the set covers 15 to 30 °C, mostly 20 to 25 °C.

* C=C(C)C(=O)OCCC [Propyl methacrylate]: log VP 0.805 (log10 mmHg)
* C=COC(=O)CC [Vinyl propionate]: log VP 1.552 (log10 mmHg)
* CC1CC(OC(=O)c2ccccc2O)CC(C)(C)C1 (stereo unspecified) [3,3,5-Trimethylcyclohexyl salicylate]: log VP -3.98 (log10 mmHg)
* CC/C=C/CCC [(3E)-3-Heptene]: log VP 1.722 (log10 mmHg)
* C=C[C@@](C)(O)/C=C/C=C(\C)CCC=C(C)C [(3R,4E,6E)-3,7,11-Trimethyldodeca-1,4,6,10-tetraen-3-ol]: log VP -2.824 (log10 mmHg)
* CN(CCCN)CCCN [N,N-Bis(3-aminopropyl)methylamine]: log VP -1.523 (log10 mmHg)
* SCCOCCOCCS [2,2'-[Ethane-1,2-diylbis(oxy)]diethanethiol]: log VP -2.413 (log10 mmHg)
* CCCCC(CC)COB(OCC(CC)CCCC)OCC(CC)CCCC (stereo unspecified) [Tris(2-ethylhexyl) borate]: log VP -5.409 (log10 mmHg)
* COc1cc(C=O)c(Cl)c(OC)c1O [2-Chlorosyringaldehyde]: log VP -3.225 (log10 mmHg)
* C=CC(=O)OC(C(F)(F)F)C(F)(F)F [Hexafluoroisopropyl acrylate]: log VP 1.8 (log10 mmHg)
* Cc1c(N)cccc1Cl [3-Chloro-2-methylaniline]: log VP -1.648 (log10 mmHg)
* CCCCCCCCC(Cl)CCCC (stereo unspecified) [5-Chlorotridecane]: log VP -2.504 (log10 mmHg)
* CO[Si](CC(C)CC(C)(C)C)(OC)OC (stereo unspecified) [Silane, trimethoxy(2,4,4-trimethylpentyl)-]: log VP -0.657 (log10 mmHg)
* O=C1CCCCO1 [Tetrahydro-2H-pyran-2-one]: log VP -1.092 (log10 mmHg)
* NC(=O)c1ccccc1O [Salicylamide]: log VP -4.824 (log10 mmHg)
* O=C1CCC(=O)N1Br [1-Bromopyrrolidine-2,5-dione]: log VP -4.69 (log10 mmHg)
* C=CC(=O)Nc1ccccc1 [N-Phenylacrylamide]: log VP -4.176 (log10 mmHg)
* O=CNC[C@H](O)[C@@H](O)[C@H](O)[C@H](O)CO [1-Deoxy-1-formamido-D-glucitol]: log VP -4.837 (log10 mmHg)
* Clc1ccc(-c2c(Cl)cccc2Cl)cc1Cl: log VP -4.165 (log10 mmHg)
* Nc1ccc(S(=O)(=O)Nc2ccccn2)cc1 [Sulfapyridine]: log VP -4.203 (log10 mmHg)
* CCCCC/C=C\C/C=C\C/C=C\C/C=C\CCCC(=O)OCC [5,8,11,14-Eicosatetraenoic acid, ethyl ester]: log VP -6.165 (log10 mmHg)
* CN1CCN(C)CC1 [1,4-Dimethylpiperazine]: log VP 0.991 (log10 mmHg)
* CCOC(=O)CC(NC1CCC(CC2CCC(NC(CC(=O)OCC)C(=O)OCC)C(C)C2)CC1C)C(=O)OCC (stereo unspecified): log VP -4.862 (log10 mmHg)
* COc1ccc([N+](=O)[O-])cc1OCCCN1CCN(C)CC1 [1-[3-(2-Methoxy-5-nitrophenoxy)propyl]-4-methylpiperazine]: log VP -9.824 (log10 mmHg)
* CCC(C)=NO[Si](ON=C(C)CC)(ON=C(C)CC)ON=C(C)CC [2-Butanone, O,O',O'',O'''-silanetetrayltetraoxime]: log VP -4.905 (log10 mmHg)
* Clc1ccc(Cl)c(-c2c(Cl)c(Cl)cc(Cl)c2Cl)c1Cl [2,2',3,3',5,6,6'-Heptachlorobiphenyl]: log VP -4.975 (log10 mmHg)
* C=C(Br)C(=O)Nc1ccc(Nc2cc(S(=O)(=O)[O-])c(N)c3c2C(=O)c2ccccc2C3=O)c(S(=O)(=O)[O-])c1.[Na+].[Na+]: log VP -6.71 (log10 mmHg)
* Clc1cccc(-c2ccc(Cl)c(Cl)c2Cl)c1: log VP -4.365 (log10 mmHg)
* COc1c(Cl)c(Cl)cc(Cl)c1Cl: log VP -2.495 (log10 mmHg)
* CCOC(=O)OC [Carbonic acid, ethyl methyl ester]: log VP 1.444 (log10 mmHg)
* FC(F)C(F)(F)C(F)(F)C(F)(F)C(F)(F)C(F)(F)C(F)(F)C(F)F [1H,8H-Perfluorooctane]: log VP 1.145 (log10 mmHg)
* Clc1cccc2cccc(Cl)c12 [1,8-Dichloronaphthalene]: log VP -2.824 (log10 mmHg)
* Clc1ccc(-c2cc(Cl)cc(Cl)c2)cc1 [3,4',5-Trichlorobiphenyl]: log VP -4.025 (log10 mmHg)
* CC(=O)CO [Hydroxyacetone]: log VP 0.772 (log10 mmHg)
* CCS(=O)(=O)c1nnc(N(C)C(=O)NC)s1 [Ethidimuron]: log VP -10.22 (log10 mmHg)
* COc1cccc(Cl)c1Cl [2,3-Dichloroanisole]: log VP -3.455 (log10 mmHg)
* Clc1cccc(-c2cccc(Cl)c2Cl)c1 [2,3,3'-Trichlorobiphenyl]: log VP -3.606 (log10 mmHg)
* NC(=O)c1c(Cl)cccc1Cl [2,6-Dichlorobenzamide]: log VP -6.824 (log10 mmHg)
* CCOc1cc(CO)ccc1O [3-Ethoxy-4-hydroxybenzyl alcohol]: log VP -4.694 (log10 mmHg)
* CCCCCCCCCOC(C)=O [Nonyl acetate]: log VP -1.474 (log10 mmHg)
* CCCCCCCCN(C)C [N,N-Dimethyloctylamine]: log VP -0.108 (log10 mmHg)
* C=C(CC(=O)O)C(=O)O [Methylenebutanedioic acid]: log VP -7.064 (log10 mmHg)
* CC(C)C(=O)c1ccccc1 [Isopropyl phenyl ketone]: log VP -1.058 (log10 mmHg)
* COC(=O)c1ccc(C)cc1 [Methyl 4-methylbenzoate]: log VP -0.979 (log10 mmHg)
* CCOc1cc(COC)ccc1O [Phenol, 2-ethoxy-4-(methoxymethyl)-]: log VP -4 (log10 mmHg)
* C=C(C(=O)OCC)C(=O)OCC(=O)OCC [2-Ethoxy-2-oxoethyl ethyl methylidenepropanedioate]: log VP -1.072 (log10 mmHg)
* Cc1ccc(CO)cc1 [4-Methylbenzyl alcohol]: log VP -2.05 (log10 mmHg)

Data: OPERA 2.9 data sets, kmansouri/OPERA on GitHub.